Data on four compounds can be found in US5665719A, “Benzoxazinone and benzopyrimidinone piperidinyl tocolytic oxytocin receptor antagonists” (Merck & Co., Inc., priority 1995, dated 1997).

Structures are written as SMILES.

This assay deals with T1, uterine OT receptors (Rattus norvegicus, UniProt P70536).
T1 construct: from tissue; host or cells: uterus of diethylstilbestrol dipropionate (DES)-treated rats, crude membrane preparation
T1 sequence (P70536 1-388): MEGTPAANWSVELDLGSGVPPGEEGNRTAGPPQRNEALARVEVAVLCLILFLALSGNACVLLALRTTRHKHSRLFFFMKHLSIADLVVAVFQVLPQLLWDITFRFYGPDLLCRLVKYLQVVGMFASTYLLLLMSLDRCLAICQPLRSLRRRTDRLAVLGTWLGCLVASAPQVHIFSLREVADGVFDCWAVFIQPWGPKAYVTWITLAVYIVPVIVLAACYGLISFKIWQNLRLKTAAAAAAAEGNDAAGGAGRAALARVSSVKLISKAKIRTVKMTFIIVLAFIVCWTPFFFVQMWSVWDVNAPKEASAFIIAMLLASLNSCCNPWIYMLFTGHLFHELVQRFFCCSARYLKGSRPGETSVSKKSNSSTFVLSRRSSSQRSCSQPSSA
Nature of the assay: [3H]Oxytocin (OT) radioligand binding to uterine OT receptors, crude uterine membranes from DES-treated rats. The protocol: The high affinity binding of [^3 H]Oxytocin (OT)([tyrosyl, 3,5-[^3 H]OT; 30-60 Ci/mmol; New England Nuclear. Boston, Mass.) to uterine OT receptors was based on an assay (Fuchs, A-R; Fuchs, F; Soloff, MS. 1985 J. Clin. Endocrinol. Metab. 60:37) using a crude membrane preparation of uteri taken from diethylstilbestrol dipropionate (DES)-treated (0.3 mg/kg, ip; 18-24) rats. Competition studies were conducted at equilibrium (60 minutes; 22° C.) using 1 nM[^3 H]OT in the following assay buffer: 50 mM Tris-HCl, 5 mM MgCl2, and 0.1% BSA, pH 7.4. Nonspecific binding (10% of the total binding) was determined using 1 μM unlabeled OT and the binding reaction was terminated by filtration through glass fiber filters using a cell harvester (model 7019, Skatron, Inc., Sterling, Va.). IC50 values (the concentration of tested compound that inhibits 50% of OT) were reported.
IC50 values were determined for the [^3 H]OT and [^3 H]AVP binding assays by linear regression of the relation log concentration of compound vs. percent inhibition of specific binding. Data is either reported as a given percentage of inhibition at a specified concentration,or if an IC50 was calculated, as a nanomolar concentration.
Usually IC50 stands for the point on the concentration scale where inhibition reaches its midpoint. Regarding `COc1cc(OC2CCN(Cc3cccnc3C)CC2)ccc1C(=O)N1CCC(N2C(=O)OCc3ccccc32)CC1` [Example 147, 1-(1-{2-methoxy-4-[1-(2-methyl-pyridin-3-ylmethyl)piperidin-4-yloxy]-benzoyl}-piperidin-4-yl)-1,4-dihydro-benzo[1,3]oxazin-2-one], the IC50 stood at 54 nM.
For `COc1cc(OC2CCN(Cc3cccnc3)CC2)ccc1C(=O)N1CCC(N2C(=O)OCc3ccccc32)CC1` [Example 47, 1-(1-(4-(1-(3 -Picolyl)-4-piperidinyloxy)-2-methoxybenzoyl)piperidin-4-yl)-1,2-dihydro-4(H)-3,1-benzoxazin-2-one] the value was 76 nM; for `COc1cc(OC2CCN(C(C)=O)CC2)ccc1C(=O)N1CCC(N2C(=O)OCc3ccccc32)CC1` [Example 27, 1-(1-(4-(4-(N-Acetyl)piperidinyloxy)-2-methoxybenzoyl)piperidin-4-yl)-1,2-dihydro-4(H)-3,1-benzoxazin-2-one], 46 nM; for `CC(=O)N1CCCCC1CCOc1ccc(C(=O)N2CCC(N3C(=O)OCc4ccccc43)CC2)cc1` (stereo not shown) [Example 34, 1-(1-(4-(N-Acetyl-2-piperidinylethoxy)benzoyl)piperidin-4-yl)-1,2-dihydro-4(H)-3,1-benzoxazin-2-one], 320 nM.
